The subject of one test is HBEC-5i cells. In words: Proximity ligation assay (PLA) in HBEC-5i cells. In kind it is cell-based, human. The note with it: 10 uM peptide, vs PBS (negative control). Here is the method: Proximity Ligation Assay (PLA): HBEC-5i cells were seeded into culture slides in 24 well plates (75,000 cells/well) in 500 μL of DMEM media supplemented with 10% fetal bovine serum. After 24 h, cells were washed with PBS and treated with 10 uM of Aβ peptide in serum free DMEM media. The next day after treatment, cells were washed twice with PBS and fixed in 4% PFA. For PLA analysis, cells were blocked with 3% BSA, permeabilized with triton-X, 0.5% and incubated with 1/500 dilution of Anti-Angiopoietin 2 (ab8452, abcam), 1/200 dilution of anti-β-Amyloid (#39377, abcam), 1/500 dilution of anti-β-Amyloid (#93320, Biolegend), 1/200 of anti-tie2 (#05-584, Millipore) or 1/200 of Anti-VEGF Receptor 2 antibody (ab11939, abcam) for overnight at 4 degree. Protein-protein interactions were analyzed using Duolink-based in situ PLA (Sigma-Aldrich), according to manufacturer's instructions. Signals were quantified using a confocal microscope and the Duolink Image Tool. Statistical analysis was performed on GraphPad Prism using Kruskal wallis test followed by Tukey's multiple comparison (*p<0.05; **p<0.01; ***p<0.001).

The chains behind the UniProt entries cited, without tags or fusion partners. Where a name states a change or a piece, a line headed by the entry shows the natural chain unless it says otherwise.
UniProt P05067: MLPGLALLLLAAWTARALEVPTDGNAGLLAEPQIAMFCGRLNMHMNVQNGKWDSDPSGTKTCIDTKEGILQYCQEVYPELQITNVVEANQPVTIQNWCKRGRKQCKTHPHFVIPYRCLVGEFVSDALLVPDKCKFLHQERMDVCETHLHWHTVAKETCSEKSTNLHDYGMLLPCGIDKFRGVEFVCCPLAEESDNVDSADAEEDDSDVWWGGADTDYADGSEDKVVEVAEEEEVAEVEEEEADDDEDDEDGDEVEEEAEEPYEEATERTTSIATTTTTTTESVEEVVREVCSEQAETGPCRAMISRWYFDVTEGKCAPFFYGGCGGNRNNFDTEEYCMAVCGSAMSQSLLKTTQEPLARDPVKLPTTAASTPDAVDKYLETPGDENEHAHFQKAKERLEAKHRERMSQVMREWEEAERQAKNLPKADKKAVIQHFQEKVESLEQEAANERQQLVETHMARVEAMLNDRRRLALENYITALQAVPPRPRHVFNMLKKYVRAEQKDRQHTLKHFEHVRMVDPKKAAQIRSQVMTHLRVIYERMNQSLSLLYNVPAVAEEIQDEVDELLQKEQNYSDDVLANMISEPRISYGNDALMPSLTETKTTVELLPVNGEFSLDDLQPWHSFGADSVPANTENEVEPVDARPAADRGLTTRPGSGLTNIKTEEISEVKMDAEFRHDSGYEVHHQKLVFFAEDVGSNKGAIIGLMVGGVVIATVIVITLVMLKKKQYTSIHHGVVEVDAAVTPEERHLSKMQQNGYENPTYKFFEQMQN

For test [1], the system named is Human brain endothelial cells (HBEC-5i). In words: Western blot of HBEC-5i cell lysates after peptide treatment. In kind it is cell-based. As for the experimental part: Human brain endothelial cells, HBEC-5i (ATCC® CRL-3245™) were cultured on 0.1% gelatin coated tissue culture plates in DMEM-F12 media (Gibco; cat. #10565-018) supplemented by 10% heat-inactivated fetal bovine serum (FBS) (Gibco; cat. #A31607-01) and 40 μg/ml endothelial growth supplement (Sigma-Aldrich; cat. #E2759). Cells were grown until they reached 70% confluency and then used for experiments.
Cell culture: Human brain endothelial cells were grown in 10 cm tissue culture plates. The cells were treated with either PBS, Aβ1-42 peptide (10 μM), Aβ1-16 peptide (10 μM), Ang-2 peptide (200 ng/ml) or VEGFA-165 (100 ng/ml) peptide for 24 hrs in a starving medium. After the treatment, the medium was removed, and cells were washed with PBS and then lysed with RIPA buffer that contained protease and phosphatase inhibitors. These cells were then used to analyze different proteins of interest.
Immunoblotting analysis and co-immunoprecipitation: For western blot analysis, the fractional homogenate samples were prepared with Dithiothreitol (DTT) in the sample buffer (100 mM Tris-Cl (pH 6.8), 4% (w/v) SDS, 0.2% (w/v) bromophenol blue, 20% (v/v) glycerol and 200 mM DTT). Homogenates were electrophoresed and immunoblotted with indicated antibodies. For co-immunoprecipitation, homogenates were first pre-cleaned by incubating with a bead slurry and centrifuged at 14,000×g for 4 minutes at 4° C. Beads were discarded, and supernatant kept for co-immunoprecipitation. Protein A or protein G beads were washed twice with wash buffer (10 mM Tris HCl pH 7.4, 150 mM NaCl, 1% Nonidet P-40, 1 mM EDTA, 1× Halt protease and phosphatase inhibitor cocktail and 20 mM N-Ethylmaleimide), centrifuged at 3,000×g for 2 minutes at 4° C. and incubated with the indicated antibody for 4 hours at 4° C. on a rotating shaker. Beads were then washed twice and incubated with pre-cleaned homogenates overnight at 4° C. Beads were washed, and the complex was eluted by using 2×50 μl SDS loading buffer without DTT and heating at 50° C. for 10 minutes. A second elution was carried out by 2×SDS buffer in the presence of DTT. The proteins in the eluate were resolved on the acrylamide gel according to standard practices. Immunoblotting was performed on nitrocellulose membranes using primary antibodies against the various proteins. The signal intensities were imaged by using the Odyssey infrared image system (LICOR), and relative levels of immunoreactivity were analyzed by the Image Studio Lite software.
Background: Immunoblotting shows a protein as a band on a membrane.

As to “Aβ1-16 peptide: Aβ1-16 peptide (AnaSpec; AS-24225), soluble amyloid species (DAEFRHDSGYEVHHQK; Amyloid-beta protein 42; UniProt P05067 672-687, looked up, fragment)”, the “interaction between Aβ and Tie-2, and Aβ and Ang-2 (PLA signal)” value with HBEC-5i cells is recorded as “significant interaction”. Also, the “phosphorylated VEGFR2” value in test [1] (24 hrs, 10 μM, compared to the other treatments) is given as “also increased”. Besides, the Tie-2 receptor expression result in test [1] (24 hrs, 10 μM, vs PBS or Aβ1-42 peptide) was “upregulated”. Further, the Ang-2 expression result in test [1] (24 hrs, 10 μM, vs control or Aβ1-42 peptide-treated cells) was “upregulation of Ang-2”. Further, in test [1] (24 hrs, Aβ peptides 10 μM, Ang-2 200 ng/ml, VEGFA-165 100 ng/ml, vs PBS-treated cells), the “expression of VEGFR2” value is given as “increase in the expression of VEGFR2”. In addition, the “expression of CD105” value in test [1] (vs PBS-treated or Aβ (1-42)-treated cells) is “higher expression of CD105”.

The values are drawn from patent US20230210832A1, “METHODS FOR TREATING ALZHEIMER'S DISEASE” (priority 2020, published 2023).
